Columns and labels:
Assay in all cases: Kinase profiling in a biochemical assay panel (mobility shift assays and ELISA), %-inhibition at 1 μM; selectivity entropy
[1] = molecular target: panel of more than 300 wild-type and mutant kinases (313 kinase panel) (Homo sapiens, UniProt P07947)
[2] = molecular target: panel of more than 300 wild-type and mutant kinases (313 kinase panel) (Homo sapiens, UniProt Q86V86)
[3] = molecular target: panel of more than 300 wild-type and mutant kinases (313 kinase panel) (Homo sapiens, UniProt P08581)
[4] = molecular target: panel of more than 300 wild-type and mutant kinases (313 kinase panel) (Homo sapiens, UniProt Q02156)
[5] = molecular target: panel of more than 300 wild-type and mutant kinases (313 kinase panel) (Homo sapiens, UniProt P49759); conditions: 1 µM
[6] = molecular target: panel of more than 300 wild-type and mutant kinases (313 kinase panel) (Homo sapiens, UniProt P21802); conditions: 1 µM
[7] = molecular target: panel of more than 300 wild-type and mutant kinases (313 kinase panel) (Homo sapiens, UniProt Q9P286); conditions: 1 µM
[8] = molecular target: panel of more than 300 wild-type and mutant kinases (313 kinase panel) (Homo sapiens, UniProt Q9Y243); conditions: 1 µM
[9] = molecular target: panel of more than 300 wild-type and mutant kinases (313 kinase panel) (Homo sapiens, UniProt O14757); conditions: 1 µM
[10] = molecular target: panel of more than 300 wild-type and mutant kinases (313 kinase panel) (Homo sapiens, UniProt P51817); conditions: 1 µM
[11] = molecular target: panel of more than 300 wild-type and mutant kinases (313 kinase panel) (Homo sapiens, UniProt Q9HCP0); conditions: 1 µM
[12] = molecular target: panel of more than 300 wild-type and mutant kinases (313 kinase panel) (Homo sapiens, UniProt P06213); conditions: 1 µM
[13] = molecular target: panel of more than 300 wild-type and mutant kinases (313 kinase panel) (Homo sapiens, UniProt P11362); conditions: 1 µM
[14] = molecular target: panel of more than 300 wild-type and mutant kinases (313 kinase panel) (Homo sapiens, UniProt Q14680); conditions: 1 µM
[15] = molecular target: panel of more than 300 wild-type and mutant kinases (313 kinase panel) (Homo sapiens, UniProt P31751); conditions: 1 µM
[16] = molecular target: panel of more than 300 wild-type and mutant kinases (313 kinase panel) (Homo sapiens, UniProt Q9Y6E0); conditions: 1 µM
[17] = molecular target: panel of more than 300 wild-type and mutant kinases (313 kinase panel) (Homo sapiens, UniProt Q9NWZ3); conditions: 1 µM
[18] = molecular target: panel of more than 300 wild-type and mutant kinases (313 kinase panel) (Homo sapiens, UniProt P49761); conditions: 1 µM
[19] = molecular target: panel of more than 300 wild-type and mutant kinases (313 kinase panel) (Homo sapiens, UniProt Q00535); conditions: 1 µM
[20] = molecular target: panel of more than 300 wild-type and mutant kinases (313 kinase panel) (Homo sapiens, UniProt P29317); conditions: 1 µM
[21] = molecular target: panel of more than 300 wild-type and mutant kinases (313 kinase panel) (Homo sapiens, UniProt P35916); conditions: 1 µM
[22] = molecular target: panel of more than 300 wild-type and mutant kinases (313 kinase panel) (Homo sapiens, UniProt P42684); conditions: 1 µM
[23] = molecular target: panel of more than 300 wild-type and mutant kinases (313 kinase panel) (Homo sapiens, UniProt Q9BUB5); conditions: 1 µM

Amino acid sequences for entries named in this document (tags omitted). Residues count along the entry.
UniProt P07947, whole entry, stated change not applied: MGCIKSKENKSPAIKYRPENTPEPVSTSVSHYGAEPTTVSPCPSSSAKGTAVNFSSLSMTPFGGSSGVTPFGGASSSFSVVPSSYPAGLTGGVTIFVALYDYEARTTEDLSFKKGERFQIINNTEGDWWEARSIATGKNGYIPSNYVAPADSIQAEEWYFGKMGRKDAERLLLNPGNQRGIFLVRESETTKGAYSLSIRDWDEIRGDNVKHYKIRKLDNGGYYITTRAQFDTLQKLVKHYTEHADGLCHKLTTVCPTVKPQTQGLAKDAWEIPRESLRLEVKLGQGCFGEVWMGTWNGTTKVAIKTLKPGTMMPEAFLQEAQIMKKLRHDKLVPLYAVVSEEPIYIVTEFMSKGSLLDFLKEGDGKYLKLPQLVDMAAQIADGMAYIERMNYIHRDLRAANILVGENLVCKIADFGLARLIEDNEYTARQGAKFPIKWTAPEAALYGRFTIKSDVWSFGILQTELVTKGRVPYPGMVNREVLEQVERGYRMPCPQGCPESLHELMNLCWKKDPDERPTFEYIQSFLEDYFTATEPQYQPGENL
UniProt P49759, whole entry, stated change not applied: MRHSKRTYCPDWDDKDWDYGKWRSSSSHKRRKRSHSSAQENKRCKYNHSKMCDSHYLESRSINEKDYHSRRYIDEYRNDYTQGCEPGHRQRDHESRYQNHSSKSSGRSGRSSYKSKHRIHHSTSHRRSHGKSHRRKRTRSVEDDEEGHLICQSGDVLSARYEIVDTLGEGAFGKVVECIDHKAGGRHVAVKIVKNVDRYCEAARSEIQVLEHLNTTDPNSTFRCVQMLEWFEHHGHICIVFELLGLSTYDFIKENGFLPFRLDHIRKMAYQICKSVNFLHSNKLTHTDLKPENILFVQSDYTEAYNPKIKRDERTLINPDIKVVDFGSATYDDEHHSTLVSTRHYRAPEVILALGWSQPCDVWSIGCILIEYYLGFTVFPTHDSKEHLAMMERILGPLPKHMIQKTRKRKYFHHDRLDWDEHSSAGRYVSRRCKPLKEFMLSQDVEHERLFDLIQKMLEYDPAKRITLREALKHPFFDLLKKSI
UniProt Q9P286, whole entry, stated change not applied: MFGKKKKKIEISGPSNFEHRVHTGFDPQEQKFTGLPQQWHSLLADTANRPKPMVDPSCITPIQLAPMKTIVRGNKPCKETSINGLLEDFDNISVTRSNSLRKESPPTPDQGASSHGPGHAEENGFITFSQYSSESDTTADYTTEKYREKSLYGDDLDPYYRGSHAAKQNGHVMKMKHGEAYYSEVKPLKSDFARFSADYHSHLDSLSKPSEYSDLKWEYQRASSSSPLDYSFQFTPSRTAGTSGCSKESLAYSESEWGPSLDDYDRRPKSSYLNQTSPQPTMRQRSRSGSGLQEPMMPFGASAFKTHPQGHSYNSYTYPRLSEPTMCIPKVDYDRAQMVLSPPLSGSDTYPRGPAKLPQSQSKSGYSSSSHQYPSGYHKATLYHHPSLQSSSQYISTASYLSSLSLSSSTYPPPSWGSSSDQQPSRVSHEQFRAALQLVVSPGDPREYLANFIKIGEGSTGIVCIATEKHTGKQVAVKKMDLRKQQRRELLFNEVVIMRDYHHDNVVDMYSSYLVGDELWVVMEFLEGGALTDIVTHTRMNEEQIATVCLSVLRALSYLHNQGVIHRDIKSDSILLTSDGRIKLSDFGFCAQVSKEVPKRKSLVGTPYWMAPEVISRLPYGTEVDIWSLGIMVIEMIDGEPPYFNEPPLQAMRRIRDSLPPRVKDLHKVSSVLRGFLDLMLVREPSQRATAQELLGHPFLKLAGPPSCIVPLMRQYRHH
UniProt Q9Y243, whole entry, stated change not applied: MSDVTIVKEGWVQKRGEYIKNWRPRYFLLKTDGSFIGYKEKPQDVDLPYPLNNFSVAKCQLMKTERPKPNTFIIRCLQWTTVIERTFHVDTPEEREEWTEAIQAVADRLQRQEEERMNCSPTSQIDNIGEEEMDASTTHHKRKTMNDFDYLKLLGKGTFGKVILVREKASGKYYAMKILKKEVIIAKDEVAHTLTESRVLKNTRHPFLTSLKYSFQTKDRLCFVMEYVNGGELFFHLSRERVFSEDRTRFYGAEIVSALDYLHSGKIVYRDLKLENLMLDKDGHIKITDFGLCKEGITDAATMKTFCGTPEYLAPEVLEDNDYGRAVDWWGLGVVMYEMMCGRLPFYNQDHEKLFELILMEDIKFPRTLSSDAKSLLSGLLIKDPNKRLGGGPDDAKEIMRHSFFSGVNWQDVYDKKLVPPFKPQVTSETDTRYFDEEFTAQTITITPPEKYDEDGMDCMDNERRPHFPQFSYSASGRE
UniProt Q9HCP0, whole entry, stated change not applied: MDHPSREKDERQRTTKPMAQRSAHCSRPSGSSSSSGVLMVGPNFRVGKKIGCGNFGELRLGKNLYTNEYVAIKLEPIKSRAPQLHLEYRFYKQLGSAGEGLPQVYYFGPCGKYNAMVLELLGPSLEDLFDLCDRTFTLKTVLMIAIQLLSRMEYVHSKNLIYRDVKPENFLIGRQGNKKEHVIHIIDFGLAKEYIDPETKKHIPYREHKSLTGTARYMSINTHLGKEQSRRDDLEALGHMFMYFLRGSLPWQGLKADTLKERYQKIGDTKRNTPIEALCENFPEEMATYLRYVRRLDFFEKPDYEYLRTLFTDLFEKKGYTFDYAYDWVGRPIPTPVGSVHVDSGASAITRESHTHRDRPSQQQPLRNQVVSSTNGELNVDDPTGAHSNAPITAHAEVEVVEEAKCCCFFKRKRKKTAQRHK
UniProt P06213, 28-1382, stated change not applied: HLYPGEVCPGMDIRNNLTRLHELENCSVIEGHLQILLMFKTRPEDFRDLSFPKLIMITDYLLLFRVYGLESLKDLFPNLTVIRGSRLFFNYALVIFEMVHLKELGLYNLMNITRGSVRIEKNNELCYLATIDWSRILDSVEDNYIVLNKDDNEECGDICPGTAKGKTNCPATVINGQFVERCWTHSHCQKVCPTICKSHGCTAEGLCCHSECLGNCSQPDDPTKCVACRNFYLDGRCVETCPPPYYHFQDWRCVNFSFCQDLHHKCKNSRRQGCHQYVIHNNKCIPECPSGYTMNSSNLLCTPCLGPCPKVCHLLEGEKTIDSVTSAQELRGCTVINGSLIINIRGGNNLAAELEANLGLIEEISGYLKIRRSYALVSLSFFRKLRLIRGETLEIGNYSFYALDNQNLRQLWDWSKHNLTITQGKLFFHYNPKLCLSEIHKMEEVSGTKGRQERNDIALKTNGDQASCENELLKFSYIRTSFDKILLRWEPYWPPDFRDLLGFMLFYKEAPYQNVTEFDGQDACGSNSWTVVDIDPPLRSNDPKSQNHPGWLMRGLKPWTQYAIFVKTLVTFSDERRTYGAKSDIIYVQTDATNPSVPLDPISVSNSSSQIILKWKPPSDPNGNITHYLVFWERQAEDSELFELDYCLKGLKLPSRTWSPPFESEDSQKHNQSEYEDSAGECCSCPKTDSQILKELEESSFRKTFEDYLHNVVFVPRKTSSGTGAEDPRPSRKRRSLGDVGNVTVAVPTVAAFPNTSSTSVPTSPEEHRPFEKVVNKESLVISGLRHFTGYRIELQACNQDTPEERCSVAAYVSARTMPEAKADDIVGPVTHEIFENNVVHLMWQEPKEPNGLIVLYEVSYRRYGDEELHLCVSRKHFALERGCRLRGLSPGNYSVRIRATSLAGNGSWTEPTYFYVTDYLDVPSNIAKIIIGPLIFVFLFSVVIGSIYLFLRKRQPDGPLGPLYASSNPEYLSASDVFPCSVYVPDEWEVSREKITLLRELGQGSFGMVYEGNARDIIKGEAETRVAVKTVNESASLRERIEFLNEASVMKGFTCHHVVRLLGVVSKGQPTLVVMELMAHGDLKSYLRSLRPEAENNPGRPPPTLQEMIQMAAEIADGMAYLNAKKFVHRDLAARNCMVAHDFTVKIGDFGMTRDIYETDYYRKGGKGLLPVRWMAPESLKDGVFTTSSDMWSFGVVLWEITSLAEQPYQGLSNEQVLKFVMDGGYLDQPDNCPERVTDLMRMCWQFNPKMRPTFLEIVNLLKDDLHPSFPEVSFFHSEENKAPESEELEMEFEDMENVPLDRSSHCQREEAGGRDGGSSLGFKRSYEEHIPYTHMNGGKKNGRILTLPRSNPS
UniProt P31751, whole entry, stated change not applied: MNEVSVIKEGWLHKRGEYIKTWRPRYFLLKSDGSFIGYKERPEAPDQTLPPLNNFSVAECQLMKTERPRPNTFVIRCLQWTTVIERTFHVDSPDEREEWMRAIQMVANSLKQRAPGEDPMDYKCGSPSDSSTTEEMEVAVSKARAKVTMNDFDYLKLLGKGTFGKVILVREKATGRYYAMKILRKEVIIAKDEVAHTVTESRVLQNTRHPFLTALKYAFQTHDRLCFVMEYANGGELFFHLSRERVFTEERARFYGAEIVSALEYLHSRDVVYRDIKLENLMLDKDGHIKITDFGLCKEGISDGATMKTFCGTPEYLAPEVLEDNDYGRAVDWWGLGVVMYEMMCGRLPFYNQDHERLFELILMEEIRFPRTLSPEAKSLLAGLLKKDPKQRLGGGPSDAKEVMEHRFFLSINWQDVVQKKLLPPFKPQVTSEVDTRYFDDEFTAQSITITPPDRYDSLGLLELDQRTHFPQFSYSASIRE
UniProt P49761, whole entry, stated change not applied: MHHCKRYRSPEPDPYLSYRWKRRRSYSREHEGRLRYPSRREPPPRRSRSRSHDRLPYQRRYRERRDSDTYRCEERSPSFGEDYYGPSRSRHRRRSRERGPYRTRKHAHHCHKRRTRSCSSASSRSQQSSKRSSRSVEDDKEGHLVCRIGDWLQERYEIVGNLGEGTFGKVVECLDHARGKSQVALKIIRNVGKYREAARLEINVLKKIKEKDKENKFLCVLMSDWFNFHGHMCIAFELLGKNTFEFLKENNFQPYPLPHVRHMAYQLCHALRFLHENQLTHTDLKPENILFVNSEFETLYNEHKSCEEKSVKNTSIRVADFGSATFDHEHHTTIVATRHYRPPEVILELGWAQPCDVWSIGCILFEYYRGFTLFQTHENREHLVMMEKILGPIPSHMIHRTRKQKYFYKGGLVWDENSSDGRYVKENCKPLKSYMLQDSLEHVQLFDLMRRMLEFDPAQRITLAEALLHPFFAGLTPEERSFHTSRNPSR
UniProt Q00535, whole entry, stated change not applied: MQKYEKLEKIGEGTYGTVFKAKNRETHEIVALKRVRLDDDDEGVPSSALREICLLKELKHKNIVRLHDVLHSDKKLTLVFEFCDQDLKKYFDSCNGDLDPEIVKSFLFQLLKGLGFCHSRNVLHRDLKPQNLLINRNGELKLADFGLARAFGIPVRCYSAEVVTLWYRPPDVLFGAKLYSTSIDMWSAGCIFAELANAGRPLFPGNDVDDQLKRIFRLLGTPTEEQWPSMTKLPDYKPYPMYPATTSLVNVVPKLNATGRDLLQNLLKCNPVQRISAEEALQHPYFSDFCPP
UniProt P29317, 24-976, stated change not applied: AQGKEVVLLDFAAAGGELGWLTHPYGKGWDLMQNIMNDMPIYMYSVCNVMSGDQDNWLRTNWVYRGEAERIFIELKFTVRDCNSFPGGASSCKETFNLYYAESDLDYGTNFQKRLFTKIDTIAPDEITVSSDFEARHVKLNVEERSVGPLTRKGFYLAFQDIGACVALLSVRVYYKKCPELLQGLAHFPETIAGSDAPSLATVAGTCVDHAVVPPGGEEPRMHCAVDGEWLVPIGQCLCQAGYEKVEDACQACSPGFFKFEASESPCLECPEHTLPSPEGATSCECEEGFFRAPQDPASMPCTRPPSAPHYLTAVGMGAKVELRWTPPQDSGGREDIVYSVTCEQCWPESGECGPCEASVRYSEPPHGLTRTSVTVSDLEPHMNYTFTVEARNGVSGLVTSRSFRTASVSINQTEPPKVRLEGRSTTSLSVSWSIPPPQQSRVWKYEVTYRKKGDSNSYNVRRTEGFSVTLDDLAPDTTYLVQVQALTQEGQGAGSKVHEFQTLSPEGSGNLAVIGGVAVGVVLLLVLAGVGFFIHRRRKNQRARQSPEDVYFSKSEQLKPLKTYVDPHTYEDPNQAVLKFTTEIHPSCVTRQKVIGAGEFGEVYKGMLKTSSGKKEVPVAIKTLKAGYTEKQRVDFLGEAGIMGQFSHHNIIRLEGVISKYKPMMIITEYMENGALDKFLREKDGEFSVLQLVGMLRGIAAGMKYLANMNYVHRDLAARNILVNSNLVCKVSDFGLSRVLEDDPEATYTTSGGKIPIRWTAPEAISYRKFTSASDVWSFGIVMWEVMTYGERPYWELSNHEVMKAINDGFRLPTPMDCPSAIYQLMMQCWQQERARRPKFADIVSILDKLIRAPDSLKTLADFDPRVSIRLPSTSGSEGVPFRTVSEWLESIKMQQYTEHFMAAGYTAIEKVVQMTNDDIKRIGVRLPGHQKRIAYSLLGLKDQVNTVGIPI

Row | Structure (SMILES) | %-inhibition, CLK1 [5] [%] | %-inhibition of FGFR2 [6] [%] | %-inhibition of PAK5 [7] [%] | %-inhibition, AKT3 [8] [%] | %-inhibition, CHK1 [9] [%] | %-inhibition of PRKX [10] [%] | %-inhibition, CK1γ1 [11] [%] | %-inhibition of INSR [12] [%] | %-inhibition of FGFR1 [13] [%] | %-inhibition of MELK [14] [%] | %-inhibition, AKT2 [15] [%] | %-inhibition of MST3 [16] [%] | %-inhibition of IRAK4 [17] [%] | %-inhibition of CLK3 [18] [%] | %-inhibition, CDK5/p25 [19] [%] | %-inhibition of EPHA2 [20] [%] | %-inhibition of FLT4 [21] [%] | %-inhibition, ARG [22] [%] | %-inhibition of MNK1 [23] [%] | also measured
1 | CNC(=O)c1ccccc1Sc1ccc2c(/C=C/c3ccccn3)n[nH]c2c1 [axitinib] |  |  |  |  |  |  |  |  |  |  |  |  |  |  |  |  |  |  |  | %-inhibition of YES ([1]; kinase YES, compound at 1 μM): 79%; %-inhibition of PIM3 ([2]; kinase PIM3, 1 μM): -7.44%; %-inhibition of MET ([3]; kinase MET, compound at 1 μM): 36%; %-inhibition of PKCε ([4]; kinase PKCε, 1 μM): -7.49%
2 | COc1cc2ncnc(Nc3ccc(F)c(Cl)c3)c2cc1OCCCN1CCOCC1 [gefitinib] | 23 | 13 | 2.83 | 5.27 | 17 | 2.56 | 2.33 | 2.63 | 7 | 2.78 | 4.29 | 11 | 16 | 0.938 | 2.11 | 19 | 19 | 39 | 99 | 
3 | C[C@@H]1CCN(C(=O)CC#N)C[C@@H]1N(C)c1ncnc2[nH]ccc12 [tofacitinib] | -1.42 | 17 | -1.44 | 2.14 | 0.836 | 8.46 | -3.25 | -1 | 14 | 3.21 | -3.28 | -1.58 | -3.69 | -12 | -15 | -1.38 | 19 | 1.17 | -1.62 | %-inhibition of YES ([1]; 1 µM): 12%; %-inhibition of PIM3 ([2]; 1 µM): -3.62%; %-inhibition of MET ([3]; 1 µM): -1.22%; %-inhibition of PKCε ([4]; 1 µM): -4.32%

— publication PMC3961306, “Comparison of the Cancer Gene Targeting and Biochemical Selectivities of All Targeted Kinase Inhibitors Approved for Clinical Use” (PLoS ONE, 2014)
